Assay results: patent publication US20240342161A1, “BISBENZYLISOQUINOLINES AS CONDITIONING AGENTS FOR IMMUNE THERAPY” (priority 2023, published 2024)
Where “and” joins values, the source holds several entries; their conditions need not be identical. Equal values may be shown once.

Sequences of proteins named here, by UniProt entry; tags and fusion partners are left off. A change or cut given only in a name is not applied to a line headed by its entry.
UniProt Q13555: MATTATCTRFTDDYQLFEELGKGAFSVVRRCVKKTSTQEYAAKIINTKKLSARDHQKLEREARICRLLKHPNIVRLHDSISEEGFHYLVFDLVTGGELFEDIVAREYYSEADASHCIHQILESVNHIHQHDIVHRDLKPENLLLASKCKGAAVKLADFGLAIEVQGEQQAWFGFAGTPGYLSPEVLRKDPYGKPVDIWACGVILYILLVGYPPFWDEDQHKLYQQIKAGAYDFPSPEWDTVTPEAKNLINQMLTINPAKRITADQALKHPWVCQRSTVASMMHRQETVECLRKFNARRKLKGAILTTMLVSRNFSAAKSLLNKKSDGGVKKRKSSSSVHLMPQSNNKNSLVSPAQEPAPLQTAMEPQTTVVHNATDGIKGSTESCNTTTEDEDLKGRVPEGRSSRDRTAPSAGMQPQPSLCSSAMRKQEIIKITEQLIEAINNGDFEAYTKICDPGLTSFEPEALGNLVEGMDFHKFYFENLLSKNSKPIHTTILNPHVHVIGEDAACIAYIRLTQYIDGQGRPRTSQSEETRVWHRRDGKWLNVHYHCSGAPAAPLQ

Target: CAMKII gamma (Homo sapiens, UniProt Q13555)
Assay: CAMKII gamma kinase activity (ADP Glo)
Details: for units: duplicate reactions

**Q.** With `CN[C@@H]1C[C@H]2O[C@@](C)([C@@H]1OC)n1c3ccccc3c3c4c(c5c6ccccc6n2c5c31)C(=O)NC4` [Staurosporin, reference compound] as the compound, how does the mean (10 uM ATP, inhibitor 10 nM) read?
**A.** The mean was 0.915.

**Q.** And the units (10 uM ATP, inhibitor 10 nM)?
**A.** Its units is 0.93 units and 0.9 units.

**Q.** What about the mean (10 uM ATP, inhibitor 100 nM) of the same compound?
**A.** Its mean is 0.2.

**Q.** What about the units (10 uM ATP, inhibitor 100 nM) of the same compound?
**A.** Its units is 0.25 units and 0.15 units.

**Q.** And the mean (50 uM ATP, inhibitor 10 nM)?
**A.** The mean was 7.285.

**Q.** And the mean (50 uM ATP, inhibitor 100 nM)?
**A.** Its mean is 0.635.

**Q.** What about the units (50 uM ATP, inhibitor 100 nM) of the same compound?
**A.** The units was 0.67 units and 0.6 units.
